Experimental data as given in US20070036775A1, “Method of modulating or examining Ku70 levels in cells” (priority 2001, published 2007).

Test system: Bax
Experiment: Subcellular localization / mitochondrial translocation of Bax (fractionation, Western blot, confocal)
Assay type: cell-based
Experimental: FIG. 6. Ku70 sequestered Bax from mitochondria. FIG. 6A: Subcellular localization of Bax and Ku70. HeLa cells (10^7 cells) were transfected with 10 μg pCMV-2B (Control, STS,) or pCMV-2B-Ku70 (STS+Ku70). One day following transfection, except in the control group (Control), cells were treated by 200 nM STS (STS). One day after STS-treatment, cells were collected and subcellular fractionation was performed as described in Experimental Procedure. The levels of Ku70 (Ku70) and Bax (Bax) in each fraction were analyzed by Western blotting as described in Experimental Procedure. FoF1 ATP synthase subunit α (F1α) and PCNA (PCNA) were used as markers for mitochondrial and nuclear fractions, respectively. HM stands for “Heavy Membrane” fraction containing mitochondria. FIG. 6B: Ku70 overexpression increased the capacity of Bax in the cytosol. HEK293T cells (10^7 cells) were transfected with 5.0 μg pcDNA3 and 10 μg pCMV-2B (Control), 5.0 μg pcDNA3-Bax and 10 μg pCMV-2B (Bax+Vector), or 5.0 μg pcDNA3-Bax and 10 μg pCMV-2B-Ku70 (Bax+Ku70). One day following transfection, cells were collected and subcellular fractionation and Western blot analyses of Bax and mitochondrial FoF1-ATP-synthase subunit F1α (F1α) were performed as described in Experimental Procedure. FIG. 6C: Caspase-independent disappearance of Ku70 during apoptosis. Hela cells (10^6 cells) were treated with 200 nM STS in the absence (STS) or presence of z-VAD-fmk (STS+z-VAD). One day following the treatment, cells were collected and fractionated as described in Experimental Procedure. Cytosol fractions (20 μg protein) were separated by SDS-PAGE and analyzed by Western blotting for Ku70 (anti-Ku70 monoclonal antibody, BD-Pharmingen) and β-Tubulin (anti-β-Tubulin monoclonal antibody, BD-Pharmingen) levels. […] MEFs derived from wild-type (Ku70+/+) or Ku70-knockout mice (Ku70−/−) were analyzed as described in FIG. 6A. […] MEFs derived from wild-type (Ku70+/+) or Ku70-deficient (Ku70−/−) mice were treated with STS (200 nM) and cells were analyzed at indicated various periods after treatment as described in FIG. 6A. […]

Substance: Ku70: human full length Ku70, 70 kDa subunit of Ku-complex (609 amino acids), expressed from pCMV-2B plasmid
- accumulation of Bax in mitochondrial fraction caused by overexpression of Bax (HEK293T cells, Ku70 overexpression): suppressed the accumulation of Bax in mitochondrial fraction
- mitochondrial translocation of Bax induced by STS-treatment or UVC-irradiation (HeLa cells 200 nM STS, HEK293T cells UVC 200 J/m^2): suppressed the mitochondrial translocation of Bax
- Bax levels in the nucleus (Ku70-overexpression, STS- or UVC-treated cells): increased by Ku70-overexpression
